## Yeast mating assay B: variants of the scFv Ab-14

Reference: Li et al. 2023, doi:10.1038/s41467-023-39022-2. File: FLAb, binding data.

Binding partner: SARS-CoV-2 spike HR2 peptide, sequence PDVDLGDISGINAS.

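Phage display of a naive human antibody library on the peptide gave the parent. This is the validation round: designs drawn from the data on random variants, tested in the same kind of assay. Group labels follow the data file (En: ensemble of fine-tuned language models; GP: Gaussian process model; HC: hill climbing; Gen: genetic algorithm; Gibbs: Gibbs sampling; a sequence that several methods proposed may carry one label only). AlphaSeq pools MATa yeast showing the antibodies with MATalpha yeast showing the peptide. After mating in shaken culture at 30 °C for 16 h, diploids were selected and their barcode pairs sequenced. Scores were corrected for input abundance and mapped to Kd with protein pairs of known affinity run in the same pool. Mating was done six times.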

Parent scFv Ab-14: VH joined to VL by the linker GGGGSGGGGSGGGGS. Changes lie in the light chain CDRs alone.
VH: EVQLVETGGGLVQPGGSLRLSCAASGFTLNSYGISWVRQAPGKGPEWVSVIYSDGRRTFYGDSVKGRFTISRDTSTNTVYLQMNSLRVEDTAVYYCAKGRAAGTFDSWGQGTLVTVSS
VL: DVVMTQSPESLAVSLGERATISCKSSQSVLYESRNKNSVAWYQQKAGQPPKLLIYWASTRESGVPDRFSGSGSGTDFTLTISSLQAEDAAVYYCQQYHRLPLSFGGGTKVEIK

Variants are written as CDR1, CDR2 and CDR3 of the light chain (limits as in the source). Parent: KSSQSVLYESRNKNSVA, WASTRES, QQYHRLPLS.
Variants here have more than six changes.
Numbers give log10(Kd / nM), so 0 is 1 nM and 3 is 1 µM. Smaller is tighter.
The mean shown is taken over the replicates in which the pair was detected.
"nd" means that the variant was in the library but no mating with the target was seen in any replicate; the authors take this as a sign of poor binding, and no number exists.
Three control strains display no target. For all light chain designs, 4% of the pairings with them gave a signal, with a median of 2.64 and one signal in twenty below 1.59, so weak values seen in few replicates may be background.

Variant KMAQGWEYESRNKNSVA | NASQRES | QQYHRLPLS [GP_Gibbs] showed -0.11 (6 of 6 replicates). With TVSQVHEMLSRNKNSVA | DMNTRES | QQYDRLPLS [En_HC] the result was nd (0 of 6 replicates). Variant NLSDGEMYENATRSHIA | DTKMRDF | QQYNRLPLI [En_Gibbs] gave 0.87 (6 of 6 replicates). Variant KLSQSTLYEQRQCNSVA | NASQRES | QQYHRLPLS [GP_Gibbs] showed -0.08 (6 of 6 replicates). Variant KLEEWVEYESRNKNSVA | HASTRLS | QQYHRLPLS [GP_Gibbs] gave 0.01 (6 of 6 replicates). Variant HFSQETMEFMSQNKAIA | EVTTTML | QQYARLPFI [En_Gibbs] gave 1.53 (6 of 6 replicates). Variant MIYGAARELGLAANSIA | DNVTRYN | QQYNRLPLS [En_Gen] gave 2.06 (4 of 6 replicates). Variant KLSPSVGGESRNKNSVA | EASTREQ | QDYHRLPLS [GP_Gibbs] showed -0.16 (6 of 6 replicates). Variant HIGLATMLEEYVRNSVA | NNSTREK | QQYDRLPLS [En_Gen] showed 2.19 (5 of 6 replicates).

Variant MMTTGLLGENKNSSNIA | SQNIKTA | QQYQRLPFT [En_Gibbs] showed 1.16 (6 of 6 replicates). Variant KISQMQRVGATHSNSIA | EEVTRAK | QQYHRLPLS [En_Gen] showed 0.25 (6 of 6 replicates). With MLSELVMGLSRKHNSVA | DNTTRYS | QQYDRLPLS [En_Gen] the result was 2.39 (3 of 6 replicates). Variant MFSQLFMMGSRNYNSVA | QASTRES | QQYHRLPLI [En_HC] gave 2.09 (2 of 6 replicates). Variant NLQNLGMENSVWKNAIA | DVNILEI | QQYWRLPLL [En_Gibbs] showed 0.62 (5 of 6 replicates). Variant TISQVLNTLTKVGNNVA | DLAERED | QQYFRLPLS [En_Gen] gave 0.84 (6 of 6 replicates). With TIGQTLMYGMRNSSNVA | EVSERLN | QQYDRLPLI [En_Gen] the result was 1.93 (3 of 6 replicates). Variant KLQMSAEYQSRNKNSVA | SASQRES | QQYHRLPLS [GP_Gibbs] showed 0.00 (6 of 6 replicates). With KLSQSELYESRQFNSVA | HASQREL | QQYHRLPLS [GP_Gibbs] the result was 0.07 (6 of 6 replicates).

Variant HVSETIFAQSKMRNSVA | ENSTRES | QQYDRLPLS [En_HC] gave 1.65 (5 of 6 replicates). For MISQILNMGSFAINSVA | QASLRNE | QQYDRLPLA [En_Gen], the assay gave nd (0 of 6 replicates). For NISLFIPEFKMWDNNIA | GATLRPT | QDYARLPLS [En_Gibbs], the assay gave 1.82 (6 of 6 replicates). With RLTEHYFMRADANHAVA | DASTRND | QQYHRLPLW [En_Gibbs] the result was 0.34 (6 of 6 replicates). With NIRGVEFESAMMGNSVA | GVDLVEA | QQYFRLPLH [En_Gibbs] the result was 0.77 (6 of 6 replicates). For IVSQLMLWGHLAKNSIA | EAEERLN | QQYDRLPLF [En_Gen], the assay gave 1.66 (1 of 6 replicates). Variant NLKEMEGDNQTKHKNIA | SVDQTMT | QQYFRLPLA [En_Gibbs] showed 0.84 (6 of 6 replicates). With TLTQVQGMMSHNKDNVA | DLSTRGN | QQYDRLPLS [En_HC] the result was 2.69 (3 of 6 replicates). Variant KLSQQWLYESRNKNSVA | NASQRLS | QCYHRLPLS [GP_Gibbs] showed 0.27 (6 of 6 replicates).

Variant KISGYLNKESKMKNSVA | EMVNRES | QQYDRLPLS [En_HC] showed 1.17 (6 of 6 replicates). Variant KLLQTVMNGKRNRNNVA | HMTMRED | QQYFRLPLS [En_HC] gave 2.61 (3 of 6 replicates). For KWEYSVLGESRNKNAVA | SASQREQ | QQYHRLPLS [GP_Gibbs], the assay gave 0.44 (6 of 6 replicates). For KLYMATGYESRNKDSIA | DNSTRGR | QQYHRLPLS [En_HC], the assay gave 1.15 (6 of 6 replicates). With AEDHMEGSGKNSDANVA | QAEQRAP | QQYHHLPLM [En_Gibbs] the result was 0.52 (6 of 6 replicates). Variant TISQSFMMENQFKNSVA | QVSTRES | QCYDRLPLS [En_HC] showed 1.72 (6 of 6 replicates). With MISQSWLYGSRARNSVA | QTSTRES | QQYDRLPLS [En_HC] the result was 1.08 (6 of 6 replicates). With KISMMTTFESRNKNSVA | ENSTRES | QSYHRLPLS [En_HC] the result was 2.34 (1 of 6 replicates). For KLSQYVGGETRNKSSLA | DNNTRCD | QQYERLPLS [En_HC], the assay gave 2.87 (1 of 6 replicates).

The 2 strongest on average among those seen in every replicate, once more:

The variant KLSPSVGGESRNKNSVA | EASTREQ | QDYHRLPLS [GP_Gibbs] showed -0.16 (6 of 6 replicates).
The variant KMAQGWEYESRNKNSVA | NASQRES | QQYHRLPLS [GP_Gibbs] showed -0.11 (6 of 6 replicates).

The authors averaged sequences with at least three values out of six and counted those with two or fewer as poor binders.
The range of this assay differs from that of the first round, and the authors advise against merging the two.
The parent sequence was in this pool as ten entries: three were never detected, three once, and four in most replicates, with averages from 0.34 to 2.37.